Values joined by “and” are separate entries in the source; they are usually repeats but may differ in a detail not shown here. Identical values can stand only once. Like-named read-outs stand apart in the source and are kept apart here.
How the values were obtained:
Test in all cases: biochemical
[1] = molecular target: HLA-A*0202 (Homo sapiens, UniProt P04439, D140Y/D185E/D98H/E176V/E277Q/G131W/G231S/I119L/I121R/I166T/I218V/L180W/L300P/L318F/N151K/N90K/P208A/P217A/Q67R/Q86G/Q94H/R138H/R169H/T345S); format: binding
[2] = molecular target: HLA-A*0201 (Homo sapiens, UniProt P04439, D140Y/D185E/D98H/E176V/E277Q/G131W/G231S/I119V/I121R/I166T/I218V/L300P/L318F/N151K/N90K/P208A/P217A/Q86G/Q94H/R138H/R169H/T345S); format: binding
[3] = molecular target: HLA-A*0203 (Homo sapiens, UniProt P04439, A173T/D140Y/D185E/D98H/E277Q/G131W/G231S/I119V/I121R/I166T/I218V/L180W/L300P/L318F/N151K/N90K/P208A/P217A/Q86G/Q94H/R138H/R169H/T345S); format: binding
[4] = molecular target: HLA-A*6802 (Homo sapiens, UniProt P04439, A269V/D140Y/D185E/E176V/E277Q/E87N/F33Y/G231S/I121R/I166T/I218V/L180W/L300P/L318F/N151K/P208A/P217A/Q86R/R138H/R169H/S129P/T345S/V36M); format: binding
[5] = molecular target: HLA-A*3101 (Homo sapiens, UniProt P04439, A270S/D185E/E176V/E277Q/F33T/G231S/G80R/H175R/I121M/I218V/I322F/K168Q/L300P/L318F/M331R/P217A/Q94H/R138Q/T323A/T345S/T97I/V358M); format: binding
[6] = molecular target: HLA-A*1101 (Homo sapiens, UniProt P04439, A114D/D185E/E176A/F33Y/L180Q/S129P/T187R); format: binding
[7] = molecular target: HLA-DR DRB5*0101 (DR51) (Homo sapiens, UniProt P01903+Q30154); format: binding; settings: DRB5 *0101
[8] = molecular target: HLA-DQ DQA1*0301/B*0302 (DQ8) (Homo sapiens, UniProt P01909+P01920, A209T/A45G/C70Q/D89A/DUP78-78/E183D/E77G/F237L/G63E/H199R/I129T/K197E/L178F/L74F/L98V/Q57E/Q76R/S185I/S97I/T217I/T49S/V73L/Y58L)
[9] = molecular target: HLA-DR DRB1*1101 (DR11) (Homo sapiens, UniProt P01903+P01911, A100R/A169T/A87E/I96F/K41T/L162R/M171V/P40S/Q125H/Q178H/Q39Y/Q99D/R42S/S66Y/T262R/V115G/W38E); format: binding; settings: DRB1 *1101
[10] = molecular target: HLA-DR DRB1*0301 (DR3) (Homo sapiens, UniProt P01903+P01911, A100K/A102G/A103R/A169T/F55Y/I96L/K41T/L162R/M171V/P40S/Q125H/Q178H/Q39Y/R42S/S66N/T106N/T262R/W38E/Y61H); format: binding
[11] = molecular target: HLA-DR DRB1*0802 (DR8) (Homo sapiens, UniProt P01903+P01911, A100R/A103L/A169T/F76Y/H45Y/I96F/K41T/L162R/M171V/P40S/Q125H/Q178H/Q39Y/Q99D/R218S/R42G/S66Y/V115G/W38E); format: binding
[12] = A*0202 binding affinity (expressed as an IC50)
[13] = A*0201 binding affinity (expressed as an IC50)
[14] = A*0203 binding affinity (expressed as an IC50)
[15] = A*6802 binding affinity (expressed as an IC50)
[16] = read-out: A*6802 binding affinity (expressed as an IC50)

Chains of the proteins cited; added tags and fusions are not shown. Residues count along the entry.
UniProt Q30154, 30-266: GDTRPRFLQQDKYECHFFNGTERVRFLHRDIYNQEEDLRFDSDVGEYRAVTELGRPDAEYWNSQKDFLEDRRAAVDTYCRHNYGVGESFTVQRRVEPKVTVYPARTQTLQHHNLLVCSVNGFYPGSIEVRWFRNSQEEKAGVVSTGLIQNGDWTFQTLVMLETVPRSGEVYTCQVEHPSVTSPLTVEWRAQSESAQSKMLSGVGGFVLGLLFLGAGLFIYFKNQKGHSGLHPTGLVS

CSCC[C@H](NC(=O)[C@H](CC(C)C)NC(=O)[C@@H](N)CC(=O)O)C(=O)N[C@@H](CC(C)C)C(=O)N[C@@H](CC(C)C)C(=O)N[C@@H](CCCNC(=N)N)C(=O)N[C@@H](CC(C)C)C(=O)N[C@@H](CO)C(=O)N[C@@H](CCC(=O)O)C(=O)N1CCC[C@H]1C(=O)N[C@H](C(=O)O)C(C)C
IC50 [1, 12]: 66 nM | IC50 [2, 13]: 69 nM | IC50 [3, 14]: 32 nM

CC[C@H](C)[C@H](NC(=O)[C@H](Cc1ccc(O)cc1)NC(=O)[C@H](CC(C)C)NC(=O)[C@H](CC(C)C)NC(=O)[C@@H](N)Cc1ccccc1)C(=O)N[C@@H](CC(C)C)C(=O)N[C@@H](Cc1ccccc1)C(=O)N[C@@H](CC(C)C)C(=O)N[C@H](C(=O)O)C(C)C
IC50 [1, 12]: 279 nM | IC50 [4, 15]: 6980 nM | IC50 [3, 14]: 3090 nM

CC[C@H](C)[C@H](NC(=O)[C@H](CC(=O)O)NC(=O)[C@H](CC(C)C)NC(=O)[C@H](CCC(N)=O)NC(=O)[C@@H](NC(=O)[C@@H](NC(=O)[C@@H](N)Cc1ccccc1)C(C)C)C(C)C)C(=O)N[C@@H](CCC(N)=O)C(=O)N[C@@H](CO)C(=O)N[C@H](C(=O)N[C@@H](CCCCN)C(=O)O)[C@@H](C)O
IC50 [5]: 48600 nM

CC(C)C[C@H](NC(=O)CN)C(=O)N[C@@H](Cc1c[nH]cn1)C(=O)NCC(=O)N[C@@H](CCC(N)=O)C(=O)N[C@@H](CC(=O)O)C(=O)N[C@@H](CC(C)C)C(=O)N[C@@H](Cc1ccccc1)C(=O)NCC(=O)N[C@H](C(=O)O)C(C)C
IC50 [4, 15]: > 80000 nM

CC(C)C[C@H](NC(=O)[C@H](CCCCN)NC(=O)[C@H](CCC(=O)O)NC(=O)[C@H](CC(C)C)NC(=O)[C@@H](NC(=O)[C@@H](NC(=O)CN)[C@@H](C)O)[C@@H](C)O)C(=O)N[C@H](C(=O)N[C@@H](CC(N)=O)C(=O)N[C@@H](CCCNC(=N)N)C(=O)O)[C@@H](C)O
IC50 [5]: 382 nM

CC[C@H](C)[C@H](N)C(=O)N[C@@H](CC(C)C)C(=O)N[C@@H](Cc1ccc(O)cc1)C(=O)N[C@@H](CCCNC(=N)N)C(=O)N[C@@H](CC(=O)O)C(=O)N[C@@H](CS)C(=O)N[C@H](C(=O)N[C@@H](C)C(=O)N[C@@H](Cc1ccc(O)cc1)C(=O)O)[C@@H](C)CC
IC50 [5]: 53200 nM

CC[C@H](C)[C@H](N)C(=O)N[C@@H](CC(C)C)C(=O)N[C@@H](Cc1ccc(O)cc1)C(=O)N[C@@H](CO)C(=O)N[C@@H](C)C(=O)N[C@@H](Cc1c[nH]cn1)C(=O)N[C@@H](CC(=O)O)C(=O)N[C@H](C(=O)N[C@H](C(=O)N[C@H](C(=O)O)C(C)C)[C@@H](C)O)[C@@H](C)O
IC50 [1, 12]: 1.1 nM | IC50 [4, 15]: 6280 nM | IC50 [3, 14]: 13 nM

CC[C@H](C)[C@H](NC(=O)CNC(=O)[C@H](CC(C)C)NC(=O)[C@@H](NC(=O)[C@@H](N)CCCCN)[C@@H](C)O)C(=O)N[C@@H](CO)C(=O)N[C@@H](Cc1ccc(O)cc1)C(=O)NCC(=O)N[C@@H](CCCNC(=N)N)C(=O)N[C@@H](CCCCN)C(=O)N[C@@H](CCCCN)C(=O)O
IC50 [6]: 285 nM

CC(C)C[C@H](NC(=O)[C@@H](N)CC(C)C)C(=O)N[C@@H](Cc1ccccc1)C(=O)N[C@@H](Cc1ccc(O)cc1)C(=O)N[C@@H](CO)C(=O)N[C@@H](CCCCN)C(=O)N[C@H](C(=O)N[C@@H](CCCNC(=N)N)C(=O)N[C@@H](CCCNC(=N)N)C(=O)O)C(C)C
IC50 [5]: 38 nM

CC[C@H](C)[C@H](NC(=O)[C@H](CO)NC(=O)[C@H](CO)NC(=O)[C@@H](NC(=O)[C@H](Cc1ccccc1)NC(=O)[C@@H](NC(=O)[C@H](CCSC)NC(=O)[C@H](CCC(N)=O)NC(=O)[C@@H](N)CC(N)=O)[C@@H](C)CC)C(C)C)C(=O)O
IC50 [4, 15]: 198 nM

CC(C)C[C@H](NC(=O)[C@H](CC(=O)O)NC(=O)[C@H](Cc1ccc(O)cc1)NC(=O)[C@@H](NC(=O)[C@H](CC(N)=O)NC(=O)[C@H](CO)NC(=O)[C@H](CC(=O)O)NC(=O)[C@H](CO)NC(=O)[C@H](C)NC(=O)CNC(=O)[C@H](Cc1ccc(O)cc1)NC(=O)[C@@H](NC(=O)[C@H](CC(C)C)NC(=O)[C@H](CO)NC(=O)[C@@H](N)CC(N)=O)C(C)C)C(C)C)C(=O)O
IC50 [7]: > 13000 nM | IC50 [8]: 8340 nM | IC50 [9]: > 15400 nM | IC50 [10]: 81200 nM | IC50 [11]: > 33300 nM

C[C@H](NC(=O)[C@H](C)NC(=O)[C@H](Cc1ccc(O)cc1)NC(=O)[C@H](C)NC(=O)[C@H](C)NC(=O)[C@@H]1CCCN1)C(=O)N[C@@H](CCC(N)=O)C(=O)NCC(=O)N[C@@H](Cc1ccc(O)cc1)C(=O)N[C@@H](CCCCN)C(=O)O
IC50 [6]: 456 nM

CC(C)C[C@H](NC(=O)[C@@H]1CCCN1)C(=O)N[C@H](C(=O)N[C@@H](CS)C(=O)N[C@@H](CC(N)=O)C(=O)NCC(=O)N[C@H](C(=O)N[C@@H](CC(C)C)C(=O)N[C@@H](CCC(N)=O)C(=O)NCC(=O)N[C@H](C(=O)O)C(C)C)C(C)C)C(C)C
IC50 [2, 13]: 91 nM and 26 nM | IC50 [3, 14]: 36 nM

CC[C@H](C)[C@H](NC(=O)[C@@H](N)CO)C(=O)N1CCC[C@H]1C(=O)N[C@@H](Cc1c[nH]cn1)C(=O)N[C@@H](C)C(=O)N[C@@H](C)C(=O)N[C@@H](CS)C(=O)N[C@@H](Cc1c[nH]cn1)C(=O)N[C@@H](CCCNC(=N)N)C(=O)O
IC50 [6]: 352 nM

CC(C)C[C@H](NC(=O)[C@@H](NC(=O)[C@@H](NC(=O)[C@H](Cc1ccccc1)NC(=O)[C@H](CCCCN)NC(=O)[C@H](CC(C)C)NC(=O)[C@H](CCC(=O)O)NC(=O)[C@H](CCCCN)NC(=O)[C@H](C)NC(=O)[C@H](CC(C)C)NC(=O)[C@@H](N)C(C)C)C(C)C)[C@@H](C)O)C(=O)O
IC50 [3, 14]: 194 nM

CC[C@H](C)[C@H](NC(=O)[C@H](CCCCN)NC(=O)[C@@H](NC(=O)[C@@H](NC(=O)[C@@H](N)C(C)C)[C@@H](C)O)C(C)C)C(=O)NCC(=O)NCC(=O)N[C@@H](CCC(N)=O)C(=O)N[C@@H](CC(C)C)C(=O)N[C@@H](CCCNC(=N)N)C(=O)O
IC50 [6]: 194 nM

CC[C@H](C)[C@H](NC(=O)[C@H](CCCNC(=N)N)NC(=O)[C@H](CC(C)C)NC(=O)[C@H](CC(=O)O)NC(=O)[C@H](C)NC(=O)[C@@H](NC(=O)[C@@H](N)C(C)C)C(C)C)C(=O)N[C@H](C(=O)N[C@@H](Cc1ccc(O)cc1)C(=O)N[C@@H](CCCNC(=N)N)C(=O)O)C(C)C
IC50 [5]: 41 nM

ALGTTGYV
IC50 ([1]; read-out: A*0202 binding affinity (expressed as an IC50)): 6.7 nM | IC50 ([2]; read-out: A*0201 binding affinity (expressed as an IC50)): 93 nM | IC50 [4, 16]: 28300 nM

LLWQPIPVTIV
IC50 [4, 16]: 62 nM | IC50 ([3]; read-out: A*0203 binding affinity (expressed as an IC50)): 18 nM

Source: patent US20060079453A1, “Hla binding peptides and their uses” (priority 2002, published 2006)
